High-throughput results as filed in PubChem BioAssay.
MLL AF4-AF9 inh: blocks AF4 peptide binding to human AF9; P42568; AID 651704; AlphaScreen, biotin-AF4 peptide binding to FLAG-AF9; inhibition, % at 10 µM; actives 0.47% (n = 350,000);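 active = every replicate reaching a set inhibition limit, whatever the replicate mean, cut at about 25% in these data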;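 note: 0% = plate neutral control median and 100% = total signal loss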
RAD54 branch: RAD54 (human) branch migration inhibition; Q92698; RAD54 Holliday junction branch migration, FAM/BHQ fluorescence; inhibition, % at 10.4 µM; actives 0.14% (n = 360,000);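 active = mean normalized replicate activity at least 40 and at least half of replicates scoring 40 or more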;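 note: 0% = median of neutral control wells and 100% = median of positive control wells; inhibitors cause a drop in the FAM fluorescence signal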
SIRT5 inh: blocks human SIRT5 desuccinylation of peptide; Q9NXA8; Purified SirT5, succinyl-peptide AMC, trypsin-coupled fluorescence; inhibition, % at 15 µM; actives 1.1% (n = 330,000); in the data active = inhibition above about 15%
UUG fidelity: yeast start codon fidelity modulation. S. cerevisiae UUG-firefly luciferase reporter, luminescence/redox ratio. activity score, % at 18.7 µM. 0.13% of 350,000 active;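 active = replicate mean at a twofold rise or more, about +100% in these data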;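 also: firefly luciferase made from a UUG start codon reports start codon fidelity; reporter light over untreated wells divided by growth signal over untreated wells; some hits fall short of that in this replicate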
RAD52 anneal inh: RAD52 (human) annealing inhibition; inhibition, % at 18.7 µM; P43351; actives 0.46% (n = 360,000); recombinant RAD52 DNA annealing, FRET fluorescence;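 active = every replicate showing at least 50% inhibition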
E-sel inducer: induces E-selectin expression in human endothelial cells; HUVEC E-selectin immunofluorescence imaging; normalized: neutral wells 0, TNF-alpha wells 100; activation, % at 7.58 µM; actives 0.37% (n = 260,000); AID 686992;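 active = mean E-selectin-positive cell signal at least 10% of the positive control, reached in at least 60% of replicates, without over 20% cell loss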
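System: HUVEC, human umbilical vein endothelial cells; quantity: 3,000 cells/well; buffer or medium: EGM-2 medium, gelatin-coated wells; dosing: single-point compound dose; detection: immunofluorescence imaging; evaluation: % PE-positive cells; benchmarks: TNF-alpha, DMSO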
* marks the source's active call; other numbers are inactive results; / = not tested or not shown; ! = repeats disagree. Rows were chosen to be rich in hits. Some 1.8% of all compounds tested hit in one or more screens of this group.

SMILES	MLL AF4-AF9 inh	RAD54 branch	SIRT5 inh	UUG fidelity	RAD52 anneal inh	E-sel inducer
CCC(C)N1C(=O)S/C(=C/c2ccc(N3CCOCC3)cc2C)C1=O (stereo not given)	26*	/	-1	/	-15	/
COC(=O)C[C@@H]1CC[C@@H]2[C@H](COc3ccc(NC(=O)c4cc(C)on4)cc3C(=O)N2C)O1	-1	6	-2	12	-13	1
CCN1CCCC(NC(=O)c2scc3c2CCCC3)C1 (stereo not given)	47*	3	-1	-16	-4	0
Cc1ccc(NC(=O)c2scc3c2CCCC3)cc1	-3	/	0	/	-10	/
C[C@@H]1CN([C@H](C)CO)S(=O)(=O)c2ccc(C#CCN(C)C)cc2O[C@H]1CN(C)S(=O)(=O)c1cccc(F)c1	6	-12	6	/	20	0
CCCC#Cc1ccc2c(c1)O[C@H](CN(C)S(=O)(=O)c1cccc(OC)c1)[C@H](C)CN([C@H](C)CO)S2(=O)=O	2	4	17*!	-12	-21	0
COc1cccc(S(=O)(=O)N(C)C[C@H]2Oc3cc(C#CCN(C)C)ccc3S(=O)(=O)N([C@@H](C)CO)C[C@H]2C)c1	9	-6	3	8	-25	0
C[C@H](CO)N1C[C@H](C)[C@H](CN(C)S(=O)(=O)c2cccc(F)c2)Oc2cc(C#CCN(C)C)ccc2S1(=O)=O	7	2	5	/	20	0
CC(C)CC#Cc1ccc2c(c1)O[C@@H](CN(C)S(=O)(=O)c1cccc(F)c1)[C@H](C)CN([C@H](C)CO)S2(=O)=O	2	-6	19*	-1	31	0
CC(C)CC#Cc1ccc2c(c1)O[C@@H](CN(C)S(=O)(=O)c1cccc(F)c1)[C@H](C)CN([C@@H](C)CO)S2(=O)=O	3	4	17*	-2	8	0
CC(C)CC#Cc1ccc2c(c1)O[C@@H](CN(C)S(=O)(=O)c1cccc(F)c1)[C@@H](C)CN([C@@H](C)CO)S2(=O)=O	-1	1	20*	-2	12	/
COCC#Cc1ccc2c(c1)O[C@@H](CN(C)S(=O)(=O)c1cccc(F)c1)[C@@H](C)CN([C@H](C)CO)S2(=O)=O	2	-1	19*!	6	-32	0
CCCC#Cc1ccc2c(c1)O[C@@H](CN(C)S(=O)(=O)c1cccc(F)c1)[C@@H](C)CN([C@H](C)CO)S2(=O)=O	-7	5	1	9	1	0
COCC#Cc1ccc2c(c1)O[C@@H](CN(C)S(=O)(=O)c1cccc(F)c1)[C@H](C)CN([C@H](C)CO)S2(=O)=O	1	-1	2	8	-41	0
CC(C)CC#Cc1ccc2c(c1)O[C@H](CN(C)S(=O)(=O)c1cccc(F)c1)[C@@H](C)CN([C@H](C)CO)S2(=O)=O	1	5	16*	-4	/	0
C[C@@H]1CN([C@@H](C)CO)C(=O)c2cccc(NC(=O)c3ccncc3)c2O[C@H]1CN(C)Cc1ccc(Oc2ccccc2)cc1	3	-6	5	0	-16	/
Cc1noc(C)c1NC(=O)Nc1cccc2c1O[C@H](CN(C)Cc1ccc(C(=O)Nc3ccccc3N)cc1)[C@@H](C)CN([C@@H](C)CO)C2=O	2	/	22*	/	14	1
C[C@@H]1CN([C@H](C)CO)C(=O)c2cccc(NC(=O)c3ccncc3)c2O[C@H]1CN(C)S(C)(=O)=O	-2	-4	36*	-11	-4	/
C[C@H]1CN([C@@H](C)CO)C(=O)c2cccc(NC(=O)c3ccncc3)c2O[C@H]1CN(C)Cc1ccc(C(=O)Nc2ccccc2N)cc1	-17	/	/	/	19	51*
C[C@@H]1CN([C@H](C)CO)C(=O)c2cccc(NC(=O)c3ccncc3)c2O[C@@H]1CN(C)Cc1ccc(Oc2ccccc2)cc1	25*	-2	-5	4	-1	0

Compounds above with an aryl methoxy group:
SMILES	MLL AF4-AF9 inh	RAD54 branch	SIRT5 inh	UUG fidelity	RAD52 anneal inh	E-sel inducer
CCCC#Cc1ccc2c(c1)O[C@H](CN(C)S(=O)(=O)c1cccc(OC)c1)[C@H](C)CN([C@H](C)CO)S2(=O)=O	2	4	17*!	-12	-21	0
COc1cccc(S(=O)(=O)N(C)C[C@H]2Oc3cc(C#CCN(C)C)ccc3S(=O)(=O)N([C@@H](C)CO)C[C@H]2C)c1	9	-6	3	8	-25	0

Returning to the listing, repeating the two entries before the break.
SMILES	MLL AF4-AF9 inh	RAD54 branch	SIRT5 inh	UUG fidelity	RAD52 anneal inh	E-sel inducer
C[C@H]1CN([C@@H](C)CO)C(=O)c2cccc(NC(=O)c3ccncc3)c2O[C@H]1CN(C)Cc1ccc(C(=O)Nc2ccccc2N)cc1	-17	/	/	/	19	51*
C[C@@H]1CN([C@H](C)CO)C(=O)c2cccc(NC(=O)c3ccncc3)c2O[C@@H]1CN(C)Cc1ccc(Oc2ccccc2)cc1	25*	-2	-5	4	-1	0
COCC#Cc1ccc([C@@H]2[C@H](CO)N3C(=O)CN(C(=O)c4ccncc4)C[C@@H]23)cc1	-3	/	-1	/	3	0
CCCNC(=O)Nc1ccc2c(c1)C(=O)N(C)C[C@@H](OC)[C@H](C)CN(C(=O)C1CCOCC1)[C@@H](C)CO2	-2	-4	0	-3	1	0
Cc1cc(C(=O)Nc2cccc3c2O[C@@H](CN(C)Cc2ccc(Oc4ccccc4)cc2)[C@H](C)CN([C@H](C)CO)C3=O)n(C)n1	5	-2	22*	-3	14	-12
C[C@H]1CN([C@@H](C)CO)C(=O)c2cccc(NC(=O)c3ccncc3)c2O[C@H]1CN(C)Cc1ccccc1	-3	-5	-4	-16	-17	0
C[C@@H]1CN([C@@H](C)CO)C(=O)c2cccc(NC(=O)c3ccncc3)c2O[C@H]1CN(C)Cc1ccccc1	-1	5	23*	-7	-4	0
C[C@H](CO)N1C[C@H](C)[C@@H](CN(C)Cc2ccc(C(=O)Nc3ccccc3N)cc2)Oc2c(NS(=O)(=O)c3cccs3)cccc2C1=O	2	/	7	/	7	3
Cc1noc(C)c1NC(=O)Nc1cccc2c1O[C@@H](CN(C)Cc1ccc(Oc3ccccc3)cc1)[C@@H](C)CN([C@H](C)CO)C2=O	5	1	37*	1	0	0
C[C@H]1CN([C@@H](C)CO)C(=O)c2cccc(NS(=O)(=O)c3cccs3)c2O[C@@H]1CN(C)Cc1ccc(C(=O)Nc2ccccc2N)cc1	1	/	3	/	-5	392*
Cc1noc(C)c1NC(=O)Nc1cccc2c1O[C@H](CN(C)Cc1ccc(Oc3ccccc3)cc1)[C@@H](C)CN([C@H](C)CO)C2=O	4	2	-4	4	12	0
CC=Cc1ccc2n(c1=O)C[C@@H]1[C@@H](CO)[C@H](C(=O)NC3CCC3)[C@H]2N1Cc1ccncc1 (mixture of isomers)	-2	/	-14	/	-17	0
CCCC(=O)Nc1ccc2c(c1)C(=O)N(C)[C@H]1CC[C@@H](CC(=O)NCc3ccccc3)O[C@H]1CO2	0	-9	-3	4	-7	0
CCCN1C(C)C(C(=O)OCC)=CN(Cc2ccc(Br)cc2)S1(=O)=O (stereo not given)	-1	7	32*	-2	0	-2
CC#CCN1C=C(C(=O)OCC)C(C)N(Cc2ccc(Br)cc2)S1(=O)=O (stereo not given)	-8	-4	-2	18	-14	-2
CO[C@H]1CC[C@@H]2CCN(C)C(=O)C[C@@H](c3ccccc3)CN(C)C(=O)c3cccc(C#N)c3OC[C@H]1O2	-1	6	0	/	-8	0
Nc1c(Br)cc(Br)c2c1C(=O)c1c(cccc1S(=O)(=O)O)C2=O	-1	-11	-4	20	-29	124*
